In ChEMBL document CHEMBL1153121, “2-Arylbenzoxazoles as CETP inhibitors: Substitution of the benzoxazole moiety” (Bioorg Med Chem Lett, 2010):

Biological target: Cholesteryl ester transfer protein (Homo sapiens) (UniProt P11597)
Assay: inhibition of human CETP assessed as cholesteryl ester transfer by fluorescence transfer assay relative to control
Design: concentration or dose not given beside the values
Conditions: concentration not given here

An inhibition of 32% was found for `Cc1ccccc1OCC(=O)Nc1ccc(-c2nc3ccc(Cl)cc3o2)cc1` in this work.
